Source: US20260232826A1, “ANTIBODY-DRUG CONJUGATES AND THEIR USES” (Mablink Bioscience, priority 2022, published 2026)

Amino acid sequences for entries named in this document (tags omitted). Residues count along the entry.
UniProt P15328, 25-234 limits assumed: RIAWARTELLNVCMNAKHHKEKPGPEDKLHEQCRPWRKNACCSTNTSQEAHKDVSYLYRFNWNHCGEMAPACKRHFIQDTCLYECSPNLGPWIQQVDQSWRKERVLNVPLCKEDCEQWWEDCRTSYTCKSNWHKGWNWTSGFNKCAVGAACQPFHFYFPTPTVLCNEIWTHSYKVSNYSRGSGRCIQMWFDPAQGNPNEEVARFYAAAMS

What was measured:
OV-90 cancer model = test: In vivo efficacy, OV-90 xenograft; settings: for toxicities observed in OV-90 xenograft study: IV once at 30 mg/kg (FIG. 11)
Text: (§1) Four to five-week-old female CB-17 severe combined immunodeficient (SCID) mice are obtained and quarantined for 7 days prior to study initiation. Mice are inoculated subcutaneously with cells (5-10×10^6 cells per mouse) resuspended in PBS (OV-90, SW-620, KB, BT-474 cell lines) or 50% BD Matrigel (Corning®) in PBS (PA-1, IGROV-1, OVCAR-3, NCI-H2110 cell lines). When average tumor volume reached about 120-150 mm^3 mice are randomized (typically 7 mice per group) and treated by a single (unless stated otherwise) intravenous injection of PBS (negative control) or investigated antibody-drug conjugate. Tumor volumes are measured every 3-5 days using a caliper device (length×width) and calculated using the following formula V=4/3×π×R3, where R represents the radius. Mice are sacrificed when the tumor volume exceeded 1500 mm^3 or in case of ulceration of the tumor.
as §1, with “were” for “are”, “obtained from Janvier labs (Le Genest-Saint-Isle, France)” for “obtained”, “V=4/3×π×R^3,” for “V=4/3×π×R3,”

[1] = system: folate receptor alpha negative (FRα neg) BT-474 breast cancer model; test: In vivo efficacy, FRα negative BT-474 xenograft; set-up: species or system SCID mice; settings: IV once at 5 and 10 mg/kg (FIG. 17)
SW-620 cancer model = test: In vivo efficacy, SW-620 xenograft; set-up: species or system SCID mice
Text: as §1
as §1, with “were” for “are”, “obtained from Janvier labs (Le Genest-Saint-Isle, France)” for “obtained”, “V=4/3×π×R^3,” for “V=4/3×π×R3,”

KB cancer model = test: In vivo efficacy, KB xenograft; set-up: species or system SCID mice; settings: IV once at 3, 6 and 12 mg/kg; NEG-VA-EXA 12 mg/kg (FIG. 13)
Text: as §1
as §1, with “were” for “are”, “obtained from Janvier labs (Le Genest-Saint-Isle, France)” for “obtained”, “V=4/3×π×R^3,” for “V=4/3×π×R3,”

[2] = target: T1, recombinant human folate receptor alpha protein (Homo sapiens, UniProt P15328); test: kd (1/s)
T1 construct: purchased Sino Biological 11241-H08H
Text: Table printed on a drawing sheet, FIGURE 5
Head of the field: kd (1/s)
Footnotes: ka: association rate constant, mean calculated over replicates / s.d. ka: standard deviation of association rate constant / kd: dissociation rate constant, mean calculated over replicates / s.d. kd: standard deviation of dissociation rate constant / KD: affinity constant, calculated as kd/ka / s.d. KD: standard deviation of affinity constant / n.d.: not determined
The patent's description of the figure: FIG. 5 represents in vitro surface plasmon resonance (SPR) binding experiments of conjugates against recombinant human folate receptor alpha protein, according to example 8.
First copying reader's note: Records are a mix of naked antibodies and their antibody-drug conjugates; the numbers 5, 10, 15, 20 at the left margin are line numbers, not table content.
Where the first naming reader finds the target: description_of_the_figure: binding experiments of conjugates against recombinant human folate receptor alpha protein

[3] = Mice tolerability experiment (SCID mice); format: in vivo
Method: To assess mice preclinical therapeutic index, mouse tolerability experiments were performed with F-VA-EXA, F-LALA-VA-EXA and M-SORAV conjugates. […] Mice were carefully monitored for weight loss or apparent signs of toxicity over the course of 21 days.

cancer xenograft models = test: In vivo xenografts experiments overall (effective dose range); set-up: species or system SCID mice; settings: Table 10
Text: as §1
as §1, with “were” for “are”, “obtained from Janvier labs (Le Genest-Saint-Isle, France)” for “obtained”, “V=4/3×π×R^3,” for “V=4/3×π×R3,”

B1: F-LALA-VA-EXA (conjugate)
heavy: EVQLVESGGGVVQPGRSLRLSCSASGFTFSGYGLSWVRQAPGKGLEWVAMISSGGSYTYYADSVKGRFAISRDNAKNTLFLQMDSLRPEDTGVYFCARHGDDPAWFAYWGQGTPVTVSSASTKGPSVFPLAPSSKSTSGGTAALGCLVKDYFPEPVTVSWNSGALTSGVHTFPAVLQSSGLYSLSSVVTVPSSSLGTQTYICNVNHKPSNTKVDKKV[gap - human IgG1 Fc with changes]
light: DIQLTQSPSSLSASVGDRVTITCSVSSSISSNNLHWYQQKPGKAPKPWIYGTSNLASGVPSRFSGSGSGTDYTFTISSLQPEDIATYYCQQWSSYPYMYTFGQGTKVEIKRTVAAPSVFIFPPSDEQLKSGTASVVCLLNNFYPREAKVQWKVDNALQSGNSQESVTEQDSKDSTYSLSSTLTLSKADYEKHKVYACEVTHQGLSSPVTKSFNRGEC
modifications: N-methyl
- efficacy, OV-90 xenograft (OV-90 cancer model; IV once at 10 mg/kg (FIG. 12)): outperformed both F-VA-EXA and M-SORAV
- toxicities observed in OV-90 xenograft study (OV-90 cancer model): No toxicities were observed
- efficacy, OV-90 xenograft (OV-90 cancer model; IV once at 3, 6 and 12 mg/kg (FIG. 15)): outperformed M-SORAV
- efficacy, BT-474 (FRα neg) xenograft [1]: No efficacy was observed
- antitumor activity, SW-620 xenograft (SW-620 cancer model; IV once at 1, 3 and 6 mg/kg, NEG-VA-EXA 6 mg/kg (FIG. 10)): equally highly active at a dose of 1 mg/kg and above
- antitumor activity, KB xenograft (KB cancer model): equally active at a dose of 3 mg/kg and above
- kd [2]: 0.0368 s⁻¹
- Maximum Tolerated Dose in SCID mice (MTD) ([3]; Table 10): Above 200 mg/kg
- tolerability in SCID mice ([3]; single intraperitoneal dose of 200 mg/kg, 21 days (FIG. 18)): well tolerated with no apparent signs of toxicity
- Effective dose (ED) range based on in vivo xenografts experiments (SCID mice) (cancer xenograft models): 1 to 10 mg/kg

B2: M-SORAV (conjugate)
heavy: QVQLVQSGAEVVKPGASVKISCKASGYTFTGYFMNWVKQSPGQSLEWIGRIHPYDGDTFYNQKFQGKATLTVDKSSNTAHMELLSLTSEDFAVYYCTRYDGSRAMDYWGQGTTVTVSSASTKGPSVFPLAPSSKSTSGGTAALGCLVKDYFPEPVTVSWNSGALTSGVHTFPAVLQSSGLYSLSSVVTVPSSSLGTQTYICNVNHKPSNTKVDKKV[gap - human IgG1 Fc]
light: DIVLTQSPLSLAVSLGQPAIISCKASQSVSFAGTSLMHWYHQKPGQQPRLLIYRASNLEAGVPDRFSGSGSKTDFTLTISPVEAEDAATYYCQQSREYPYTFGGGTKLEIKRTVAAPSVFIFPPSDEQLKSGTASVVCLLNNFYPREAKVQWKVDNALQSGNSQESVTEQDSKDSTYSLSSTLTLSKADYEKHKVYACEVTHQGLSSPVTKSFNRGEC
- mice with diarrhea (OV-90 cancer model; IV once at 30 mg/kg): 2 out of 6
- toxicities observed in OV-90 xenograft study (OV-90 cancer model): significant toxicities were observed
- mice presenting signs of prostration (OV-90 cancer model; mouse, in vivo, iv, 30 mg/kg): 3 out of 6
- mice showing unkempt appearances (dull and matted haircoat) (OV-90 cancer model; mouse, in vivo, iv, 30 mg/kg): 6 out of 6
- efficacy, BT-474 (FRα neg) xenograft [1]: No efficacy was observed
- antitumor activity, SW-620 xenograft (SW-620 cancer model; IV once at 5, 10 or 15 mg/kg (FIG. 9)): inactive even when dosed at 15 mg/kg
- antitumor activity, KB xenograft (KB cancer model): equally active at a dose of 3 mg/kg and above
- kd [2]: 0.000327 s⁻¹
- Maximum Tolerated Dose in SCID mice (MTD) ([3]; Table 10): Below 100 mg/kg
- Preclinical rodent therapeutic index (MTD divided by ED) ([3]; Table 10): 10-100
- tolerability in SCID mice ([3]; single intraperitoneal dose of 100 m/kg (FIG. 18)): significant signs of toxicity
- day at which mice were found dead or had to be euthanized ([3]; single intraperitoneal dose of 100 m/kg, all mice): 2 to 3 days
- Effective dose (ED) range based on in vivo xenografts experiments (SCID mice) (cancer xenograft models): 1 to 10 mg/kg
